Test system: MGC-803
Experiment: Antiproliferative activity against human MGC803 cells after 72 hrs by MTT assay
Format: functional, cell-based

Structure (SMILES) | Activity
CCCn1c(SCc2ccc(F)cc2)nc2c1c(=O)[nH]c(=O)n2C | Dose-dependent effect
CCCn1c(SCc2cccc(C)c2)nc2c1c(=O)[nH]c(=O)n2C | Dose-dependent effect
